{"source": "paper PMC3115046", "about": "“Analyzing Airway Inflammation with Chemical Biology: Dissection of Acidic Mammalian Chitinase Function with a Selective Drug-like Inhibitor” (Chemistry & Biology, 2011)", "target": "T1, human AMCase (hAMCase) (Homo sapiens, UniProt Q9BZP6)", "T1 construct": "A fragment corresponding to hAMCase 22-398 (bp 64–1194) was ligated into the pPIC9 vector; made in house; host or cells: Pichia pastoris GS115", "T1 sequence (Q9BZP6 22-398)": "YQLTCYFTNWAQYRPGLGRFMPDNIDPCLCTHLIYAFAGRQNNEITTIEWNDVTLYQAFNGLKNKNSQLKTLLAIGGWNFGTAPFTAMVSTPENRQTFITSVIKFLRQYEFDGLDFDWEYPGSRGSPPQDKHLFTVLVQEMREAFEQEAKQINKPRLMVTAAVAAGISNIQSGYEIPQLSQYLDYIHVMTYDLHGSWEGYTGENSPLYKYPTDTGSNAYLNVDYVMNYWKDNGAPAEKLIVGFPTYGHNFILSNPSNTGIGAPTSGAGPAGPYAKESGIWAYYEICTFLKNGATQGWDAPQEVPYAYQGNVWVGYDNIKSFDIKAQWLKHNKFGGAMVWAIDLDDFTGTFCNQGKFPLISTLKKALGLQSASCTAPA", "experiment": "Chitinase activity assay with fluorescent 4-MU substrate, hAMCase", "format": "biochemical", "conditions": "Lineweaver-Burk plot; read-out: Ki against hAMCase, competitive inhibition model", "data": [{"smiles": "Cn1cnc2c1c(=O)n(CCCn1c(=O)c3[nH]cnc3n(C)c1=O)c(=O)n2C", "note": "[bisdionin F]", "values": [{"measurement": "Ki", "result": "420 ± 10", "unit": "nM"}]}]}
